Target: T1, IDO1 enzyme in Hela cells (Homo sapiens, UniProt P14902)
T1 construct: endogenous in cells; host or cells: HeLa cells stimulated with human recombinant IFN-γ
Test: Inhibition of IDO1 enzyme in IFN-γ stimulated Hela cells (kynurenine read at 480 nm)
Type: cell-based

Chains of the proteins cited; added tags and fusions are not shown.
UniProt P14902, whole entry: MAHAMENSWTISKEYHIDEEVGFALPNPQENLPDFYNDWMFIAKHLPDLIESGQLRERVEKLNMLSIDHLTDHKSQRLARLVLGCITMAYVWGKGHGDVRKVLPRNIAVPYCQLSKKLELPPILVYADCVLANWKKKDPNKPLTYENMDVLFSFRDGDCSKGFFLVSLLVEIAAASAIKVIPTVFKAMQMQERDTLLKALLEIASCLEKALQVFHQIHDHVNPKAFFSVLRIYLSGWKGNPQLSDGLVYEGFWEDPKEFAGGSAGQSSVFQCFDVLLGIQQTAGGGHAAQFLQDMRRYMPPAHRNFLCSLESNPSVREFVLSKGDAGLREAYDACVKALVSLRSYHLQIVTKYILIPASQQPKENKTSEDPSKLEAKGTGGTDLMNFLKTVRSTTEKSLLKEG

SMILES: CCCCN(CCCC)c1ccc(/C(C)=C/C(=O)O)cc1NC(=O)Nc1ccc(C)cc1 [Compound 525, (E)-3-(4-(dibutylamino)-3-(3-(p-tolyl)ureido)phenyl)but-2-enoic acid]
- IC50: 1.36 nM
- inhibition at 0.1 µM (HeLa, 48 h, read-out: Inhibition rate (%) 100 nmol): 75.1%
- inhibition at 10 µM (HeLa, 48 h, read-out: Inhibition rate (%) 10 μmol): 100%
- activity compared with positive control drugs INCB024360 and IN-4 (Hela cells, IC50 comparison): can reach or exceed those of the positive control drugs INCB024360 and IN-4

Reference: patent US11370762B2, “Vinylarene derivative and application” (SHENYANG RESEARCH INSTITUTE OF CHEMICAL INDUSTRY CO., LTD., priority 2017, dated 2022)
